We go through two compounds from ChEMBL document CHEMBL1149952, “Inhibition of human leukocyte elastase (HLE) by novel bicyclic -lactams” (Bioorg Med Chem Lett, 1993).

Experiment [1] addresses T1, Neutrophil elastase (Homo sapiens) (UniProt P08246).
T1 sequence (whole entry): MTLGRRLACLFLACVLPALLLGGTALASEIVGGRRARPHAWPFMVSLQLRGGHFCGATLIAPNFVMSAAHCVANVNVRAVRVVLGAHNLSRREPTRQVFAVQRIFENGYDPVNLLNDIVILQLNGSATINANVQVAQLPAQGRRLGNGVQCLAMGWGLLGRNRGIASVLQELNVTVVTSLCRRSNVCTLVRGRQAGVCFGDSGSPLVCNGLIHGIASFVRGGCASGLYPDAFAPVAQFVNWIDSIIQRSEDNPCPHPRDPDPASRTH

Experiment [2] has as its target T1, Neutrophil elastase (Homo sapiens). The source holds these as a separate data set.
Experiment [3] shares this target. This is another data set of the same source.

As for `C[C@@H](O)[C@H]1C(=O)N2S/C(=C/C(=O)OC(C)(C)C)C[C@H]12`, the k on in experiment [1] worked out at 130 M⁻¹ s⁻¹. This compound also yielded a k off in experiment [2] of 0.0004 s⁻¹. The compound further came in with a kOH in experiment [3] of 20 M⁻¹ s⁻¹.
In the same order, the values of `C[C@@H](O)[C@H]1C(=O)N2C/C(=C/C(=O)OC(C)(C)C)S[C@H]12` are 170 M⁻¹ s⁻¹, 0.00067 s⁻¹ and 0.08 M⁻¹ s⁻¹.
